# Source: patent US8278319B2, “Substituted spiroamine compounds” (Gruenenthal GmbH, priority 2008, dated 2012)
# Protein sequences, listed by entry. Tags and fused reporters are not part of them.
# UniProt P35372, whole entry, looked up: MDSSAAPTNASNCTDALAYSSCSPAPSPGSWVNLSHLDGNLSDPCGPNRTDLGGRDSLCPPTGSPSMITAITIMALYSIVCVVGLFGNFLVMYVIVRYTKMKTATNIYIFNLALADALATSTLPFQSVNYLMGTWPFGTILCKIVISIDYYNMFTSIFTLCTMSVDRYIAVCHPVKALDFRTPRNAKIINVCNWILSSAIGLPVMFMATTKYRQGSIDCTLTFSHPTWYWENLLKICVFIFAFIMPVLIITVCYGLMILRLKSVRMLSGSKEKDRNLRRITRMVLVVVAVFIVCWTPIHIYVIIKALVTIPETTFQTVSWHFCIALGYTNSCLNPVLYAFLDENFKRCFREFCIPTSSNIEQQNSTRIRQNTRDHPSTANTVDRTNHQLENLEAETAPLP
# Target: human μ-opiate receptor (Homo sapiens, UniProt P35372)
# Experiment: Affinity to the human μ-opiate receptor, [3H] naloxone displacement (SPA)
# Conditions: test substance 1 μM; inhibition of specific binding of [3H] naloxone; CHO-K1 membrane preparation
row,SMILES,μ-Opioid receptor [1 μM] % Inhibition
1,"COc1cc(C)c(S(=O)(=O)N2CCCCC2COCC(=O)N2CCC3(CC2)CCC(c2cccs2)(N(C)C)CC3)c(C)c1 (stereo not shown) [CC-11, 1-(3-Dimethylamino-3-thiophen-2-yl-9-azaspiro[5.5]undecan-9-yl)-2-[[1-[(4-rnethoxy-2,6-dimethyl-phenyl)sulfonyl]-piperidin-2-yl]-methoxy]-ethanone]",103%
2,"COc1cc(C)c(S(=O)(=O)N(CCOCC(=O)N2CCC3(CC2)CCC(c2cccs2)(N(C)C)CC3)C2CC2)c(C)c1 [CC-12, N-Cyclopropyl-N-[2-[2-(3-dimethylamino-3-thiophen-2-yl-9-azaspiro[5.5]undecan-9-yl)-2-oxo-ethoxy]-ethyl]-4-methoxy-2,6-dimethyl-benzenesulfonic acid amide]",100%
3,"Cc1cccc(Cl)c1S(=O)(=O)N1CCCCC1COCC(=O)N1CCC2(CC1)CCC(c1cccs1)(N(C)C)CC2 (stereo not shown) [CC-13, 2-[[1-[(2-Chloro-6-methyl-phenyl)sulfonyl]-piperidin-2-yl]-methoxy]-1-(3-dimethylamino-3-thiophen-2-yl-9-azaspiro[5.5]undecan-9-yl)-ethanone]",97%
4,"CN(C)C1(c2cccs2)CCC2(CCN(C(=O)CC(NS(=O)(=O)c3ccc4ccccc4c3)c3ccccc3)CC2)CC1 (stereo not shown) [CC-15, N-[3-(3-Dimethylamino-3-thiophen-2-yl-9-azaspiro[5.5]undecan-9-yl)-3-oxo-1-phenyl-propyl]-naphthalene-2-sulfonic acid amide]",105%
5,"COc1cc(C)c(S(=O)(=O)N2CCCCC2CCCC(=O)N2CCC3(CC2)CCC(c2cccs2)(N(C)C)CC3)c(C)c1 (stereo not shown) [CC-16, 1-(3-Dimethylamino-3-thiophen-2-yl-9-azaspiro[5.5]undecan-9-yl)-4-[1-[(4-methoxy-2,6-dimethyl-phenyl)sulfonyl]-piperidin-2-yl]-butan-1-one]",95%
6,"COc1cc(C)c(S(=O)(=O)N2CCCCC2COCC(=O)N2CCC3(CC2)CCC(c2ccccc2)(N2CCCC2)CC3)c(C)c1 (stereo not shown) [Compound 1, 2-((1-(4-Methoxy-2,6-dimethylphenylsulfonyl)piperidin-2-yl)methoxy)-1-(9-phenyl-9-(pyrrolidin-1-yl)-3-azaspiro[5.5]undecan-3-yl)ethanone]",85%
7,"COc1cc(C)c(S(=O)(=O)N2CCCC[C@H]2COCC(=O)N2CCC3(CC2)CCC(c2ccccc2)(N(C)C)CC3)c(C)c1 [Compound 2, 1-(9-(Dimethylamino)-9-phenyl-3-azaspiro[5.5]undecan-3-yl)-2-(((S)-1-(4-methoxy-2,6-dimethylphenylsulfonyl)piperidin-2-yl)methoxy)ethanone]",102%
8,"COc1cc(C)c(S(=O)(=O)N(CCOCC(=O)N2CCC3(CC2)CCC(c2ccccc2)(N(C)C)CC3)C2CC2)c(C)c1 [Compound 3, N-Cyclopropyl-N-(2-(2-(9-(dimethylamino)-9-phenyl-3-azaspiro[5.5]undecan-3-yl)-2-oxoethoxy)ethyl)-4-methoxy-2,6-dimethylbenzenesulfonamide]",100%
9,"COc1cc(C)c(S(=O)(=O)N2c3ccccc3C[C@H]2COCC(=O)N2CCC3(CC2)CCC(c2ccccc2)(N(C)C)CC3)c(C)c1 [Compound 4, 1-(9-(Dimethylamino)-9-phenyl-3-azaspiro[5.5]undecan-3-yl)-2-(((S)-1-(4-methoxy-2,6-dimethylphenylsulfonyl)indolin-2-yl)methoxy)ethanone]",99%
10,"Cc1cccc(Cl)c1S(=O)(=O)N1CCCC[C@H]1COCC(=O)N1CCC2(CC1)CCC(c1ccccc1)(N(C)C)CC2 [Compound 6, 2-(((S)-1-(2-Chloro-6-methylphenylsulfonyl)piperidin-2-yl)methoxy)-1-(9-(dimethylamino)-9-phenyl-3-azaspiro[5.5]undecan-3-yl)ethanone]",98%
